# In ChEMBL document CHEMBL3286371, “wALADin benzimidazoles differentially modulate the function of porphobilinogen synthase orthologs” (J Med Chem, 2014):
# Columns and labels:
# [1] = tested on: Toxoplasma gondii; experiment: Stimulation of Toxoplasma gondii recombinant PBGS using 5-ALA as substrate at […]
# [2] = molecular target: T1, Delta-aminolevulinic acid dehydratase (Wolbachia sp. subsp. Brugia malayi (strain TRS), UniProt Q5GSR3); experiment: Inhibition of C-terminal His-tagged Wolbachia PBGS using 5-ALA as substrate
# T1 sequence (Q5GSR3 whole entry): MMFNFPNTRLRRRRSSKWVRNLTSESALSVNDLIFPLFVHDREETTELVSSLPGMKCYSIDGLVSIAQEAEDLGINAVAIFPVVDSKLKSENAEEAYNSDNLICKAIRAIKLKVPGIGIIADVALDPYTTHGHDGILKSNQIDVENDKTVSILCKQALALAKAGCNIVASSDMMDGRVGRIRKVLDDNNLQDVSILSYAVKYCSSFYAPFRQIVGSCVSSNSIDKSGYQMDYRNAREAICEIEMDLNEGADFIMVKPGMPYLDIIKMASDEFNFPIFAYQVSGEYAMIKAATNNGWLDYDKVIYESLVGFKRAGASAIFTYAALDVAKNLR
# [3] = molecular target: T2, Delta-aminolevulinic acid dehydratase (Homo sapiens, UniProt P13716); experiment: Inhibition of human PBGS using 5-ALA as substrate
# T2 sequence (P13716 whole entry): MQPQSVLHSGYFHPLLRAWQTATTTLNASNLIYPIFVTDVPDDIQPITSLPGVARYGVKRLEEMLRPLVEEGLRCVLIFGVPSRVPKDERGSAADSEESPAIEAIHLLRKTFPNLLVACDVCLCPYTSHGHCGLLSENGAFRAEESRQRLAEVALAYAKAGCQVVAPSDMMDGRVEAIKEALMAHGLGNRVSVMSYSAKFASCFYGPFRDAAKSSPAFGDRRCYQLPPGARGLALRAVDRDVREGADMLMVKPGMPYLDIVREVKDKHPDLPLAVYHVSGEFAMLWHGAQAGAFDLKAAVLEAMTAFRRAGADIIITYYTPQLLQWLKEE
Structure (SMILES),Smax [1] [%],IC50 [2] [µM],IC50 [3] [µM]
O=C(O)c1ccc2nc(CCNC(=O)c3cccs3)n(Cc3cccc(C(F)(F)F)c3)c2c1,115,,
Cn1cnc2cc(C(=O)O)ccc21,,500,500
